The values that follow come from patent US11071788B2, “Antibody drug conjugates of kinesin spindel protein (KSP) inhibitors with antiB7H3-antibodies” (BAYER PHARMA AKTIENGESELLSCHAFT, priority 2015, dated 2021).

The target in one experiment is T1, human B7H2 (Homo sapiens (Human), UniProt O75144).
T1 sequence (O75144 whole entry, looked up): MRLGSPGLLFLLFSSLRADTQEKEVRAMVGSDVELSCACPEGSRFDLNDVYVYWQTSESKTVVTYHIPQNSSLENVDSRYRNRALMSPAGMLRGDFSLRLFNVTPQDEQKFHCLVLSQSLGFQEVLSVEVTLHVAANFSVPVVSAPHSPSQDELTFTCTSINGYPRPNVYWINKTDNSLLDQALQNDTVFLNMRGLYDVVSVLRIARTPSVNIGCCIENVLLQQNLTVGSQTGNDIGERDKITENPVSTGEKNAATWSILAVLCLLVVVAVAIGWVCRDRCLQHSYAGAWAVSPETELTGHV
Description: ELISA binding of anti-B7H3 antibodies to human B7H2. As for the experimental part:
(§1) TPP6497, TPP6499, TPP6501, TPP6502 and TPP6515 were synthesized as described above. Binding of the antibodies to human B7H3 and to human B7H2 and B7H4 was characterized using ELISAs. Black 384-well Maxisorp plates (Nunc) were coated with anti-human IgG Fc (Sigma, 12316; 1:440 dilution) in single coating buffer (Candor) for one hour at 37° C. After washing once with PSB, 0.05% Tween, the plate was blocked with 100% Smart Block (Candor) for one hour at 37° C. The antibody to be tested was then attached to the plate (2 μg/ml IgG in PBS, 0.05% Tween, 10% Smart Block; 1 hour, room temperature). After washing three times, the plate was incubated with the antigen in question or with buffer alone (37 ng/ml in PBS, 0.05% Tween, 10% Smart block; B7H2: RnDSystems, 8206-B7; B7H3: RnDSystems, 2318-B3-050/CF; B7H4. RnDSystems, 6576-B7; 1 hour, room temperature). After washing three times, the plate was incubated with an anti-His HRP antibody (Novagen, 71840-3; 1:10000 dilution; 1 hour, room temperature). After washing three times, the plate was incubated with Amplex Red for 30 minutes and then read.
A general note: An ELISA detects its analyte on a solid surface through an enzyme-linked reagent.

For another experiment, the target named is T2, human B7H4 (Homo sapiens (Human), UniProt Q7Z7D3).
T2 sequence (Q7Z7D3 whole entry, looked up): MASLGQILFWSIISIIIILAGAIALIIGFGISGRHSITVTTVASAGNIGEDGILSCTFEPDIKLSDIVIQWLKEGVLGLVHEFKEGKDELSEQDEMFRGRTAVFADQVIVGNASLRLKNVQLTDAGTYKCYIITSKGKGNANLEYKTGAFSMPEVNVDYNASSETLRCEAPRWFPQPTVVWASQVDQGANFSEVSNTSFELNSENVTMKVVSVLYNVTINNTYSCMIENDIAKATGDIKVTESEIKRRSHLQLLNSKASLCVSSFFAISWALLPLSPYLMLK
Description: ELISA binding of anti-B7H3 antibodies to human B7H4. As for the experimental part: as §1

The target of another experiment is T3, human B7H3 (Homo sapiens (Human), UniProt Q5ZPR3).
T3 sequence (Q5ZPR3 whole entry, looked up): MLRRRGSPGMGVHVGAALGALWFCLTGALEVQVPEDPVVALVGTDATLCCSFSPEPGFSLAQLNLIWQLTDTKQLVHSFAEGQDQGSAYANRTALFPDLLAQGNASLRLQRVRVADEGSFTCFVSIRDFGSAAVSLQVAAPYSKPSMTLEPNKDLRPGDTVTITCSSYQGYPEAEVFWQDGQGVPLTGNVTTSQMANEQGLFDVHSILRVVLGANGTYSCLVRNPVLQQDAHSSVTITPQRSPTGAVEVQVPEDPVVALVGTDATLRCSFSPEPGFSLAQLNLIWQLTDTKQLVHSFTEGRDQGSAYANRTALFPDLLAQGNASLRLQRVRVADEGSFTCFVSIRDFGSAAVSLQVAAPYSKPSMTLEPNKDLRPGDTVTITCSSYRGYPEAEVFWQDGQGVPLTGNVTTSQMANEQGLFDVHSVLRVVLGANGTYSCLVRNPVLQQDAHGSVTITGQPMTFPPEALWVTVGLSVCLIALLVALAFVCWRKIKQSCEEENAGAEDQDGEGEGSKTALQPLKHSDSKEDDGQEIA
Kind of experiment: ELISA binding of anti-B7H3 antibodies to human B7H3. As for the experimental part:
as §1

B1: TPP6515 (antibody)
heavy: EVQLLESGGGLVQPGGSLRLSCAASGFTFSSYGMHWVRQVPGKGLEWVSAISGSGGTTYYADSVKGRFTISRDNSKNTLYLQMNSLRAEDTAVYYCARGGYHFLFDYWGQGTLVTVSSASTKGPSVFPLAPSSKSTSGGTAALGCLVKDYFPEPVTVSWNSGALTSGVHTFPAVLQSSGLYSLSSVVTVPSSSLGTQTYICNVNHKPSNTKVDKKV[left out - human IgG1 Fc]
light: QSVLTQPPSASGTPGQRVTISCSGSSSNIGSNTVNWYQQLPGTAPKLLIYRNDQRLLGVPDRFSGSKSGTSASLAISGLRSEDEADYYCQSYDSSLSGWVFGGGTKLTVLGQPKAAPSVTLFPPSSEELQANKATLVCLISDFYPGAVTVAWKADSSPVKAGVETTTPSKQSNNKYAASSYLSLTPEQWKSHRSYSCQVTHEGSTVEKTVAPTECS
modifications: TPP-6515 Heavy Chain (IgG); TPP-6515 Light Chain (IgG)
As for B1, the “Binding to B7H2 (ELISA, in words)” value with human B7H2 is recorded as “not B7H2 or B7H4”. Also, in the experiment with human B7H4, the “Binding to B7H4 (ELISA, in words)” value was “not B7H2 or B7H4”. The “Binding to B7H3 (ELISA, in words)” value in the experiment with human B7H3 is on record as “bind B7H3”.

B2: TPP6499 (antibody)
heavy: EVQLLESGGGLVQPGGSLRLSCAASGFTFRDFYMNWIRQAPGKGLEWVSSISASGKYTYYADSVKGRFTISRDNSKNTLYLQMNSLRAEDTAVYYCAREWGYCTNDVCRNWFDPWGQGTLVTVSSASTKGPSVFPLAPSSKSTSGGTAALGCLVKDYFPEPVTVSWNSGALTSGVHTFPAVLQSSGLYSLSSVVTVPSSSLGTQTYICNVNHKPSNTKVDKKV[left out - human IgG1 Fc]
light: QSVLTQPPSASGTPGQRVTISCSGGYSNVGGNNVNWYQQLPGTAPKLLIYGNSNRPSGVPDRFSGSKSGTSASLAISGLRSEDEADYYCQSYDSSLSGSVFGGGTKLTVLGQPKAAPSVTLFPPSSEELQANKATLVCLISDFYPGAVTVAWKADSSPVKAGVETTTPSKQSNNKYAASSYLSLTPEQWKSHRSYSCQVTHEGSTVEKTVAPTECS
modifications: TPP-6499 Heavy Chain (IgG); TPP-6499 Light Chain (IgG)
On to B2, for which, in the experiment with human B7H2, the “Binding to B7H2 (ELISA, in words)” value is on record as “not B7H2 or B7H4”. In addition, the “Binding to B7H4 (ELISA, in words)” value in the experiment with human B7H4 is reported as “not B7H2 or B7H4”. Also, the “Binding to B7H3 (ELISA, in words)” value with human B7H3 is given as “bind B7H3”.

B3: TPP6502 (antibody)
heavy: EVQLLESGGGLVQPGGSLRLSCAASGFTFSTYGMHWVRQAPGKGLEWVSAISGSGGSTYYADSVKGRFTISRDNSKNTLYLQMNSLRAEDTAVYYCTRGYYYYGMDVWGQGTLVTVSSASTKGPSVFPLAPSSKSTSGGTAALGCLVKDYFPEPVTVSWNSGALTSGVHTFPAVLQSSGLYSLSSVVTVPSSSLGTQTYICNVNHKPSNTKVDKKV[left out - human IgG1 Fc]
light: QSVLTQPPSASGTPGQRVTISCSGGSSNIGSNPVNWYQQLPGTAPKLLIYGNSKRPSGVPDRFSGSKSGTSASLAISGLRSEDEADYYCQSYDSSLSGWVFGGGTKLTVLGQPKAAPSVTLFPPSSEELQANKATLVCLISDFYPGAVTVAWKADSSPVKAGVETTTPSKQSNNKYAASSYLSLTPEQWKSHRSYSCQVTHEGSTVEKTVAPTECS
modifications: TPP-6502 Heavy Chain (IgG); TPP-6502 Light Chain (IgG)
As to B3, the “Binding to B7H2 (ELISA, in words)” value with human B7H2 was “not B7H2 or B7H4”. Also, the “Binding to B7H4 (ELISA, in words)” value with human B7H4 is “not B7H2 or B7H4”. The “Binding to B7H3 (ELISA, in words)” value in the experiment with human B7H3 is listed as “bind B7H3”.
